Assay results: ChEMBL document CHEMBL4321856

Amino acid sequences for entries named in this document (tags omitted).
UniProt P41145, whole entry: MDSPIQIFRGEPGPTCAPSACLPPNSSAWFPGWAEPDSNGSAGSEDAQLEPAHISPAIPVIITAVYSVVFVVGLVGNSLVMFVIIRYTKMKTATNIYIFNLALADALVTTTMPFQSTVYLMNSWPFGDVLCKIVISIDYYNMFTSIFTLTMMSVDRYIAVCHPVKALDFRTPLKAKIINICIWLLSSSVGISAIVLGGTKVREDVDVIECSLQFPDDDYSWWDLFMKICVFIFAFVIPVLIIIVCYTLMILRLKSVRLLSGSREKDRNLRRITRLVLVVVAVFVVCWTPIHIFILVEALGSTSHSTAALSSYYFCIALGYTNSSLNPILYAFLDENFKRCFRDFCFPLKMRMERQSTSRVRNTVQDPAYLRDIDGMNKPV
UniProt P33533, whole entry: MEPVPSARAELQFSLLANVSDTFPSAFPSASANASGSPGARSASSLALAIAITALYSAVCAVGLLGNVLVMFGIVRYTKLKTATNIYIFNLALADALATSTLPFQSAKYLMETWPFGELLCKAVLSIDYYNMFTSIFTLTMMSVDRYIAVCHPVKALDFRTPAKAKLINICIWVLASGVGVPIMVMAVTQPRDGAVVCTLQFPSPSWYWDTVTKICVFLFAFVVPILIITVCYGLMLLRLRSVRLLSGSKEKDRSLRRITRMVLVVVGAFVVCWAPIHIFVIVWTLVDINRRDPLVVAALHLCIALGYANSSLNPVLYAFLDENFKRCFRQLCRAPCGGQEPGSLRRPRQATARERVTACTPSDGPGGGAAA
UniProt P33535, whole entry: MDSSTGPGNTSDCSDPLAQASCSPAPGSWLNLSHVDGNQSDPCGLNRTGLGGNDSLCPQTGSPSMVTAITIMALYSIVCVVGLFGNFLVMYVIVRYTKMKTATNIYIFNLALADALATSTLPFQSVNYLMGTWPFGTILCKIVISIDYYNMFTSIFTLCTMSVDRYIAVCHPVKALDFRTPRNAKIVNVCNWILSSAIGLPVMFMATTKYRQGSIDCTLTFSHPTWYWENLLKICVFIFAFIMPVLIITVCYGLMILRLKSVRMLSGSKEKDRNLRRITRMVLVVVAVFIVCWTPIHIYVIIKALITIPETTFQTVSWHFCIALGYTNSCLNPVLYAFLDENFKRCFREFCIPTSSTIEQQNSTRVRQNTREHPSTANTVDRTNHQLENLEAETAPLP

Key:
[1] = target: T1, Kappa-type opioid receptor (Homo sapiens, UniProt P41145); assay: Displacement of [3H]U69593 from human KOR expressed in CHO cell membranes incubated for 30 mins by liquid scintillation counting
[2] = target: T1, Kappa-type opioid receptor; assay: Agonist activity at human KOR expressed in CHO cell membranes assessed as stimulation of [35S]GTPgammaS binding incubated for 1 hr by liquid scintillation counting
[3] = target: T2, Delta-type opioid receptor (Rattus norvegicus, UniProt P33533); assay: Displacement of [3H]DPDPE from rat DOR expressed in CHO cell membranes incubated for 30 mins by liquid scintillation counting
Mu-type opioid receptor [4] = target: T3, Mu-type opioid receptor (Rattus norvegicus, UniProt P33535); assay: Displacement of [3H]DAMGO from rat MOR expressed in CHO cell membranes incubated for 30 mins by liquid scintillation counting
[5] = target: T2, Delta-type opioid receptor; assay: Agonist activity at rat DOR expressed in CHO cell membranes assessed as stimulation of [35S]GTPgammaS binding incubated for 1 hr by liquid scintillation counting
Mu-type opioid receptor [6] = target: T3, Mu-type opioid receptor; assay: Agonist activity at rat MOR expressed in CHO cell membranes assessed as stimulation of [35S]GTPgammaS binding incubated for 1 hr by liquid scintillation counting

SMILES | Ki [1] | EC50 [2] | Ki [3] | Ki (Mu-type opioid receptor [4]) | EC50 [5] | EC50 (Mu-type opioid receptor [6])
COc1ccc2c3c1O[C@H]1[C@@]4(OC)C=C[C@@]5(C[C@@H]4c4ccccc4)[C@@H](C2)N(C)CC[C@]315 | 7890 nM | 175 nM | – | – | – | –
COc1ccc2c3c1O[C@H]1[C@@]4(OC)CC[C@@]5(C[C@@H]4c4ccc(N6CCCCC6)cc4)[C@@H](C2)N(CC2CC2)CC[C@]315 | 40.3 nM | – | 1030 nM | 9.6 nM | – | –
COc1ccc2c3c1O[C@H]1[C@@]4(OC)CC[C@@]5(C[C@@H]4c4ccc(NCCN(C)C)cc4)[C@@H](C2)N(CC2CC2)CC[C@]315 | 13 nM | – | 138 nM | 15.9 nM | – | –
COc1ccc2c3c1O[C@H]1[C@@]4(OC)CC[C@@]5(C[C@@H]4c4ccc(NC(C)=O)cc4)[C@@H](C2)N(CC2CC2)CC[C@]315 | 7.8 nM | 20.7 nM | 216 nM | 8.6 nM | – | –
COc1ccc2c3c1O[C@H]1[C@@]4(OC)CC[C@@]5(C[C@@H]4c4ccc(NC=O)cc4)[C@@H](C2)N(CC2CC2)CC[C@]315 | 4.3 nM | – | 132 nM | 18.6 nM | – | –
COc1ccc2c3c1O[C@H]1[C@@]4(OC)CC[C@@]5(C[C@@H]4c4ccc(NC(=O)Cc6ccccc6)cc4)[C@@H](C2)N(CC2CC2)CC[C@]315 | 21.4 nM | – | 132 nM | 26 nM | 132 nM | –
COc1ccc2c3c1O[C@H]1[C@@]4(OC)CC[C@@]5(C[C@@H]4c4ccc(NCc6ccccc6)cc4)[C@@H](C2)N(CC2CC2)CC[C@]315 | 17.2 nM | – | 626 nM | 319 nM | 78.9 nM | 1430 nM
